The record followed here is patent US20260027128A1 (priority 2016, published 2026).

Series [1] relates to C57B1/6 mice.
The test system of series [2] is male Sprague-Dawley rats. The series is described as follows: Time to tail flick after inhaled remimazolam and/or remifentanil (Example 2). The note with it: inhaled remimazolam 10 or 25 mg/mL in combination with 250 mcg/mL remifentanil, P<0.0001.
Series [3] concerns male Sprague-Dawley rats. As to conditions: inhalation.

Read-outs that look alike come from different tables or passages of the source.

Turning to `COC(=O)CC[C@@H]1N=C(c2ccccn2)c2cc(Br)ccc2-n2c(C)cnc21` [Remimazolam, methyl 3-[(4S)-8-bromo-1-methyl-6-(pyridin-2-yl)-4H-imidazo[1,2-a][1,4]benzodiazepin-4-yl]propanoate], the Pulmonary mechanics result is “no alterations to pulmonary mechanics” in series [1] (mice acutely exposed to combination of remifentanil (200 mcg/mL) and remimazolam (20 mg/mL)); “no alterations to pulmonary mechanics” in series [1] (mice sub-acutely exposed (3 treatments every other day) to combination of remifentanil and remimazolam 20 mg/mL); “did not alter the pulmonary mechanics” in series [1] (mice, acute inhalation of remimazolam up to 20 mg/mL). Moreover, the “Response to methacholine challenge vs vehicle exposed mice” value in series [1] (mice sub-acutely exposed to remifentanil + remimazolam, P<0.0007, decrease attributed to remifentanil) is reported as “diminished changes in lung resistance”. Besides, the Adverse pulmonary events entry in series [1] (mice, inhaled remimazolam alone or in combination with remifentanil) is “does not cause lung irritation, bronchospasm, or other adverse pulmonary events”. In series [2], the “Time to tail flick vs baseline and saline control” value is recorded as “significant difference in time to tail flick”. Also, in series [3], the “Effect on analgesia when administered in conjunction with remifentanil” value is “synergistic effect on analgesia”.
